From ChEMBL document CHEMBL5236544, “Furazans in Medicinal Chemistry” (J Med Chem, 2021)

System: HeLa
Experiment: Antitumor activity against human HeLa cells xenografted in mouse model assessed as reduction in tumor growth at 60 mg/kg bid relative to control
Parameters: scale not given: the % may be the effect or the level left

COP(C)(=O)NCCCNc1nonc1/C(=N/O)Nc1ccc(F)c(Br)c1 (stereo unspecified)
Activity: 73% and 68%

Several values for one entry are separate records, joined by “and”; a condition that tells them apart may be missing. Identical values can stand only once.
